Molecules are shown by their SMILES.

The chains behind the UniProt entries cited, without tags or fusion partners. Where a name states a change or a piece, a line headed by the entry shows the natural chain unless it says otherwise.
UniProt P43490: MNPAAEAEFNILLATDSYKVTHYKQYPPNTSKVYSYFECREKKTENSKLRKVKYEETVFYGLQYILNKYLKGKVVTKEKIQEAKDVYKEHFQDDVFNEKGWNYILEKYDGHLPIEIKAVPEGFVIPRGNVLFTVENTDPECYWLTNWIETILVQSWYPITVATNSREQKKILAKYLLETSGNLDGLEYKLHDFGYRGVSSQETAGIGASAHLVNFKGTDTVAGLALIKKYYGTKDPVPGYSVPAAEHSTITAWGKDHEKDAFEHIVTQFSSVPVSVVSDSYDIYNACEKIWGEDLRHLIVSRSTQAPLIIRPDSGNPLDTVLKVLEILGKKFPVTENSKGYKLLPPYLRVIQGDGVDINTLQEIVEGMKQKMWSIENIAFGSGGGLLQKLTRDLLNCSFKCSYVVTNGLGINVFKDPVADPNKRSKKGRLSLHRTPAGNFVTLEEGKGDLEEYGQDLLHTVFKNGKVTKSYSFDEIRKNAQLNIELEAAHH

The target in this test is Nicotinamide phosphoribosyltransferase (Homo sapiens, UniProt P43490). Put plainly: Inhibition of C-terminal His-6-tagged full length human NAMPT expressed in Escherichia coli (DE3) cells after 30 mins by mass spectrometry-based analysis.

As usually defined, the IC50 is the concentration at which inhibition is half-maximal. A lower IC50 goes with higher potency. On to `O=C(NCc1ccc(S(=O)(=O)N2CCC(N3CCCC3)CC2)cc1)c1cnc2[nH]ncc2c1`, for which the IC50 turned out to be 300 nM. In other words, the sub-micromolar range.

The record behind these values is ChEMBL document CHEMBL3259558, “Identification of amides derived from 1H-pyrazolo[3,4-b]pyridine-5-carboxylic acid as potent inhibitors of human nicotinamide phosphoribosyltransferase (NAMPT)” (Bioorg Med Chem Lett, 2013).
